Protein sequences, listed by entry. Tags and fused reporters are not part of them. Residues count along the entry.
UniProt O42275, 24-633: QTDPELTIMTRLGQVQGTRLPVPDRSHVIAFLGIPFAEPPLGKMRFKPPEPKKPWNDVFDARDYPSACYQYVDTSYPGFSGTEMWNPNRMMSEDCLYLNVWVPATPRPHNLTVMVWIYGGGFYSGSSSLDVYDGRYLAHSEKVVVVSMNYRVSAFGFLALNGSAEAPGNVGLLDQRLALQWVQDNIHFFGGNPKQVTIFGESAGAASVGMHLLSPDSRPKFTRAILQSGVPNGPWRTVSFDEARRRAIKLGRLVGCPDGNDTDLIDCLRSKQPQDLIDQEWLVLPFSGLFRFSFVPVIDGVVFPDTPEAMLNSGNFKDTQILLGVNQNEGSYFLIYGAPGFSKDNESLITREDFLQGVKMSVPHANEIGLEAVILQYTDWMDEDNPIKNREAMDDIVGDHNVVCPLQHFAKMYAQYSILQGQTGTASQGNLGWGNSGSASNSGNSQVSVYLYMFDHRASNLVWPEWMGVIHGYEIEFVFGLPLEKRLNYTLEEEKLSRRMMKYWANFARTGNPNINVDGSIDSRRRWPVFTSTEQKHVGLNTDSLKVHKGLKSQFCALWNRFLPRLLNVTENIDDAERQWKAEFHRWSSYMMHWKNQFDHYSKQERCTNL

According to article PMC3791940, “Compounds from Gum Ammoniacum with Acetylcholinesterase Inhibitory Activity” (Scientia Pharmaceutica, 2013):

Molecular target: T1, AChE from electric eel (Electrophorus electricus, UniProt O42275)
T1 construct: purchased Sigma (St. Louis, USA)
Assay: Quantitative colorimetric microplate assay based on Ellman's method for AChE inhibitory activity
Type: biochemical
Conditions: read-out: IC50, inhibition of AchE (converted)
Procedure: The tested concentrations of the samples ranged from 1.56 to 200 μg/mL. Based on the resulting curves, the IC50 values for AChE inhibition were calculated using the respective curves’ equations (Table 1).
Acetylthiocholine iodide (ATCI) and chelidonine were obtained from Fluka (Buchs, Switzerland). Fast Blue B salt (FBS) and silica gel 60 were from Merck (Darmstadt, Germany). The solvents MeOH, EtOAc, CH2Cl2, and CHCl3 were purchased from VWR (Vienna, Austria). Two different buffer systems were used (buffer A: 50 mM Tris-HCl, pH 7.9 containing 0.1% BSA; buffer B: 50 mM Tris-HCl, pH 7.9 containing 0.1 M NaCl and 0.02 M MgCl2·6H2O).
A quantitative colorimetric assay based on Ellman’s method was used to measure the AChE inhibitory activities of the substances. Briefly, in a 96-well plate, 25 μL of 15 mM ATCI, 125 μL of 3 mM DTNB in buffer B, 50 μL of buffer A, and 25 μL of the extract or the isolated substances (from 15.6 μg/mL to 2.0 mg/mL in 10% DMSO) were thoroughly mixed and the absorbance was read at 405 nm five times every 15 s. […] Then the absorbance was measured again eight times every 15 s. […] To compensate for any increase in absorbance due to the color of the extracts or spontaneous hydrolysis of the substrate, the absorbance before the addition of the enzyme was subtracted from the absorbance after adding the enzyme. […]

## CNC(=O)Oc1ccc2c(c1)[C@]1(C)CCN(C)[C@@H]1N2C [Physostigmine, physostigmine, reference compound]
n=3, 25°C, 10 min incubation, tested 1.56 to 200 μg/mL
  IC50: 2910 nM
n=3, same values given in molar unit
  IC50: 2910 nM

Where two headings read alike, the source gives them in different places.
